Experimental data from publication PMC5161541 (Nuclear medicine and biology, 2016).

By UniProt entry, the sequences of proteins in these tests, tags left out.
UniProt O55242, whole entry: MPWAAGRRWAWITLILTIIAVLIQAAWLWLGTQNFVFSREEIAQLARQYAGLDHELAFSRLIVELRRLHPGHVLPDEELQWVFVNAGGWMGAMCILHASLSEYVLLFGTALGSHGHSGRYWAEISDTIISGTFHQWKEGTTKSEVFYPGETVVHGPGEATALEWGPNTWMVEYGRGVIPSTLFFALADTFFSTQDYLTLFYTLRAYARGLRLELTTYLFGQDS

Target: sites labeled by [125I]-E-IA-BF-PIPZE (σ1 receptors) (Mus musculus, UniProt O55242)
Assay type: binding
Conditions: means ± SEM (n = 3 – 6); for IC50 / Ki: 0.1 nM [125I]-E-IA-BF-PIPZE; for IC50: 37 °C, 180 min; for Ki: Cheng-Prusoff

Row | Substance | IC50 [nM] | Ki [nM] | Hill (nH)
1 | (+)-SKF10,047 | 43.2 ± 3.5 | 28.8 ± 2.4 | 1.1 ± 0.1
2 | (−)-SKF10,047 | 7090 ± 519 | 5000 ± 366 | 1.3 ± 0.3
